These results are taken from patent publication US11447445B2, “Diabetes and metabolic syndrome treatment with a novel dual modulator of soluble epoxide hydrolase and peroxisome proliferator-activated receptors” (priority 2015, dated 2022).

The chains behind the UniProt entries cited, without tags or fusion partners. Residues count along the entry.
UniProt P37231, 238-503: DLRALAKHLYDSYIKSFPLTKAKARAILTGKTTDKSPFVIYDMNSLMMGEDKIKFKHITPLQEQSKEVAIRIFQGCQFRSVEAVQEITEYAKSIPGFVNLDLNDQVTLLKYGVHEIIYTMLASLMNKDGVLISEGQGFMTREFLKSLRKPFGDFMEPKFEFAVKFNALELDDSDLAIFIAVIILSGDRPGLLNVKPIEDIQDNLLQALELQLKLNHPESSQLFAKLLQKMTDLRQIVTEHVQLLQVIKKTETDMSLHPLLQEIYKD
UniProt P34913, whole entry: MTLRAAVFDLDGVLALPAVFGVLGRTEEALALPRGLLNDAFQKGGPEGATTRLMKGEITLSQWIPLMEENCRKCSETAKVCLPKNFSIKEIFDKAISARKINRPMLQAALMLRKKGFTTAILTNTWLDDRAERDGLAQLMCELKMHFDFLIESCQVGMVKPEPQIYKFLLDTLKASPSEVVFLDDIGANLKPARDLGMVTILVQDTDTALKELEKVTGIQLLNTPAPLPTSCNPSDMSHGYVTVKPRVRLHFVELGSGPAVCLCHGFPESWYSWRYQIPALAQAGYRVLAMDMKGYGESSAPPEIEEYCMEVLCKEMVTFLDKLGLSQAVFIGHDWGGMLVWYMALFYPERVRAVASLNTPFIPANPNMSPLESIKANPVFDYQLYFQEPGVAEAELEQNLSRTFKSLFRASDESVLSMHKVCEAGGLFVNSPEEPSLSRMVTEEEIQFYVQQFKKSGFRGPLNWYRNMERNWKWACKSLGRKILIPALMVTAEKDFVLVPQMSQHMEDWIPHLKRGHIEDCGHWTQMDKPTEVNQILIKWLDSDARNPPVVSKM
UniProt Q07869, 239-466: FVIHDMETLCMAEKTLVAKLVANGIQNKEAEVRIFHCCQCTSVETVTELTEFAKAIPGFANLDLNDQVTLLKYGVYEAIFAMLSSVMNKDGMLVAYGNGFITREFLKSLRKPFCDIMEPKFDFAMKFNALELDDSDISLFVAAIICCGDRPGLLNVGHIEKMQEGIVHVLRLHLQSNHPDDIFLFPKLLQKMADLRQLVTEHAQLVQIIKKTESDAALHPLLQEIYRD

The target of one series is T1, PPARγ (Homo sapiens, UniProt P37231).
T1 construct: expressed in transfected cells; host or cells: COS-7
The series can be described thus: cell-based. The series is classed as cell-based. The settings on record: for activation at 10 µM: COS-7, read-out: PPARγ activation @10 μM, at 10 μM, compared to pioglitazone 1 μM; for Emax: COS-7, read-out: Emax-% PPARγ (maximum activation in percent); for EC50: i.a. = inactive. As for the experimental part:
(§1) COS-7 cells (PPAR) were grown in DMEM high glucose, supplemented with 10% fetal calf serum (FCS), 1% sodium pyruvate (SP) and 1% penicillin/streptomycin (PS) at 37° C. and 5% CO2. Used plasmids for PPAR transactivation assay are shown under supporting informations.
(§2) The day before transfection, COS-7 cells were seeded in 96-well plates with a density of 30,000 cells per well. Transient transfection was carried out using Lipofectamine LTX reagent (Invitrogen, Carlsbad, Calif., USA) according to the manufacturer's protocol with pFR-Luc (Stratagene), pRL-SV40 (Promega) and the Ga14-fusion receptor plasmids (pFA-CMV-hPPAR-LBD) of the respective PPAR subtype. 5 h after transfection, medium was changed to DMEM without phenol red and 10% FCS, supplemented with 1% SP, 1% PS and 1% L-glutamine, now additionally containing 0.1% DMSO and the respective test compound or 0.1% DMSO alone as untreated control. Each concentration was tested in triplicate wells and each experiment was repeated independently at least three times. Following overnight incubation with the test compounds, cells were assayed for luciferase activity using Dual-Glo™ Luciferase Assay System (Promega) according to the manufacturer's protocol. Luminescence was measured with an Infinite m200 luminometer (Tecan Deutschland GmbH). Each concentration of the compounds was tested in triplicate wells. Normalization for transfection efficacy and cell growth was done by division of the firefly luciferase data by renilla luciferase data resulting in relative light units. Activation factors were obtained by dividing by DMSO control. […] All compounds were evaluated by comparison of the achieved maximum effect to that of the reference compound (pioglitazone for PPARγ, GW7647 for PPARa, and L165041 for PPARS each with 1 μM). Data are expressed as mean±SE; n≥3.
The Gal4-fusion receptor plasmids pFA-CMV-PPARa-LBD, pFA-CMV-PPARS-LBD and pFA-CMV-PPARγ-LBD containing the hinge region and ligand binding domain (LBD) for each of the PPAR subtypes, respectively, were constructed by integrating cDNA fragments obtained from PCR amplification of human monocytes into the SmaI/XbaI cleavage site of the pFA-CMV vector (Stratagene, La Jolla, Calif., USA) and have already been published. […] Frame and sequence of the fusion receptors were verified by sequencing. pFR-Luc (Stratagene) was used as reporter plasmid and pRL-SV40 (Promega) for normalization of transfection efficacy and cell growth.

For series [1] the following is noted: after p.o. 30 mg/kg bw of 1c.
A further series concerns the target recombinant human sEH (Homo sapiens, UniProt P34913). The series is classed as biochemical.
The target of a further series is T2, PPARα (Homo sapiens, UniProt Q07869).
T2 construct: expressed in transfected cells; host or cells: COS-7
In words: cell-based. The settings on record: COS-7, read-out: Emax-% PPARα (maximum activation in percent). The procedure:
as §1
as §2, with “Following overnight incubation with the test compounds, cells were assayed for luciferase activity using Dual-Glo™ Luciferase Assay System (Promega) according to the manufacturer's protocol.” left out, “GmbH).” for “GmbH). Each concentration of the compounds was tested in triplicate wells. Normalization for transfection efficacy and cell growth was done by division of the firefly luciferase data by renilla luciferase data resulting in relative light units. Activation factors were obtained by dividing by DMSO control.”, “n≥3. […]” for “n≥3.”

Where “and” joins values, the source holds several entries; their conditions need not be identical. Equal entries are not always repeated.

Take `CCOC(=O)C(CC)Cc1ccc(C(=O)NCc2ccccc2Cl)cc1` (stereo not drawn) [Compound 4b, Ethyl 2-ethyl 3-[4-(N-((2-chloro)benzyl)benzamide)]propanoate]: the activation at 10 µM at PPARγ stood at 14%.
Take `CCC(Cc1ccc(C(=O)NCc2ccccc2C(F)(F)F)cc1)C(=O)O` (stereo not drawn) [Compound 1c, 2-Ethyl 3-[4-(N-((2-trifluoromethyl)benzyl)benzamide)]propionic acid]: in series [1], the “maximum concentration in mouse plasma” value is 7200 ng/ml and 20 μM. At PPARγ, the maximum response (Emax) was 127% and a half-maximal effect (EC50) was put at 4800 ± 2100 nM.
As for `CCOC(=O)CCc1ccc(C(=O)NCc2ccccc2C(F)(F)F)cc1` [Compound 16b, Ethyl 3-[4-(N-((2-trifluoromethyl)benzyl)benzamide)]propanoate], the activation at 10 µM on PPARγ came to 38%.
On to `O=C(O)CCc1ccc(C(=O)NCc2ccccc2C(F)(F)F)cc1` [Compound 16c, 3-[4-(N-((2-trifluoromethyl)benzyl)benzamide)]propionic acid], for which the activation at 10 µM on PPARγ stood at 38%.
On to `O=C(NCc1ccccc1C(F)(F)F)c1ccc(C2CC2C(=O)O)cc1` (stereo not drawn) [Compound 22, 2-[4-(N-((2-trifluoromethyl)benzyl)benzamide)]cyclopropan carboxylic acid], for which, on recombinant human sEH, the “sEH IC50 / inhibitory potency (unit not given)” value is “double-digit nanomolar range”. In addition, the activation at 10 µM at PPARγ stood at 24%.
With `CCCC(Cc1ccc(C(=O)NCc2ccccc2C(F)(F)F)cc1)C(=O)OCC` (stereo not drawn) [Compound 18b, Ethyl 2-propyl 3-[4-(N-((2-trifluoromethyl)benzyl)benzamide)]propanoate], at PPARγ, the EC50 was determined as 900 ± 200 nM.
Consider `CCOC(=O)C(CC)Cc1ccc(C(=O)NCc2ccccc2C(F)(F)F)cc1` (stereo not drawn) [Compound 1b, Ethyl 2-ethyl 3-[4-(N-((2-trifluoromethyl)benzyl)benzamide)]propanoate], for which, on PPARγ, the Emax was 86% and a half-maximal effect (EC50) was put at 1800 ± 200 nM.
In the same order, the values of `CCC(Cc1cccc(C(=O)NCc2ccccc2C(F)(F)F)c1)C(=O)O` (stereo not drawn) [Compound 15c, 2-Ethyl 3-[3-(N-((2-trifluoromethyl)benzyl)benzamide)]propionic acid] are 60% and 6400 ± 1300 nM.
For `CC/C(=C\c1ccc(C(=O)NCc2ccccc2C(F)(F)F)cc1)C(=O)O` [Compound 1d, (E)-4-[N-((2-Trifluoromethyl)benzyl)benzamide]-alpha-ethylcinnamic acid], in that order: 117% and 2200 ± 300 nM.
For the compound `CCOC(=O)C(CC)Cc1ccc(C(=O)NCc2ccccc2C)cc1` (stereo not drawn) [Compound 3b, Ethyl 2-ethyl 3-[4-(N-((2-methyl)benzyl)benzamide)]propanoate], the activation at 10 µM at PPARγ was found to be 15%.
On the same count and under the same terms, in the case of `CCC(Cc1ccc(C(=O)NCc2ccc(F)cc2)cc1)C(=O)O` (stereo not drawn) [Compound 7c, 2-Ethyl 3-[4-(N-((4-fluoro)benzyl)benzamide)]propionic acid] it was 23%.
As for `CCC(Cc1ccc(C(=O)NCc2ccc(C(F)(F)F)cc2)cc1)C(=O)O` (stereo not drawn) [Compound 8c, 2-Ethyl 3-[4-(N-((4-trifluoromethyl)benzyl)benzamide)]propionic acid], the maximal response (Emax) at PPARα turned out to be 89%.
